# Assay results as given in patent publication US20260384438A1, “PYRROLOPYRIMIDINE CARBOXAMIDES” (published 2026).
# Amino acid sequences for entries named in this document (tags omitted). Residues count along the entry.
# UniProt Q8TDX7, whole entry: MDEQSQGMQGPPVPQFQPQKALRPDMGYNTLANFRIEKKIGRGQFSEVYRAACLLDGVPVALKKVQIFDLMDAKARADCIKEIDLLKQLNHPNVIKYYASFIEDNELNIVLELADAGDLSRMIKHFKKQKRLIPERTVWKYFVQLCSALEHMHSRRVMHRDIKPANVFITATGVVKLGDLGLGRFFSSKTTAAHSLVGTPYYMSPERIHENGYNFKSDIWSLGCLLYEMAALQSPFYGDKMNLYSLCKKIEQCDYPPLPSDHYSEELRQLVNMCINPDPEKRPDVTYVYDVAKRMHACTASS
# UniProt Q9UHD2, whole entry: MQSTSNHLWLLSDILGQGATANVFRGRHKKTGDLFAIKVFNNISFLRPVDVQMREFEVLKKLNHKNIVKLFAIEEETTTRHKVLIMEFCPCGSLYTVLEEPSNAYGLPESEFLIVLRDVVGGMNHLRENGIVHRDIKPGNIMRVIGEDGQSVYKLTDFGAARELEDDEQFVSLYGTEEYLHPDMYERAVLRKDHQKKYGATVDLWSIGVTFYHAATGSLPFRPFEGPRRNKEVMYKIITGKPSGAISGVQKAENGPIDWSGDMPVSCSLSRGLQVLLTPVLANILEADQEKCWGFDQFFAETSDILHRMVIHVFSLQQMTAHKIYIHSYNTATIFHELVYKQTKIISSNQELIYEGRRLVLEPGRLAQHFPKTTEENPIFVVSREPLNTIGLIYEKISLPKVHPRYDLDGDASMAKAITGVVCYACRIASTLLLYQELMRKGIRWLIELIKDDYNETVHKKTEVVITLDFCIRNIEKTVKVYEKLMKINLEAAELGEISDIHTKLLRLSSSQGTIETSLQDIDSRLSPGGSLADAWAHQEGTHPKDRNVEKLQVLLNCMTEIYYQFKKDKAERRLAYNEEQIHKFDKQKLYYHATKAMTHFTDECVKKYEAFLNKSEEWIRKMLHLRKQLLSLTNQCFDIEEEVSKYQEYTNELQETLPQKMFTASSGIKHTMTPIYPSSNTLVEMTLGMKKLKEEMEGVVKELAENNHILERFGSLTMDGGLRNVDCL
# UniProt P27037, 20-513 limits assumed: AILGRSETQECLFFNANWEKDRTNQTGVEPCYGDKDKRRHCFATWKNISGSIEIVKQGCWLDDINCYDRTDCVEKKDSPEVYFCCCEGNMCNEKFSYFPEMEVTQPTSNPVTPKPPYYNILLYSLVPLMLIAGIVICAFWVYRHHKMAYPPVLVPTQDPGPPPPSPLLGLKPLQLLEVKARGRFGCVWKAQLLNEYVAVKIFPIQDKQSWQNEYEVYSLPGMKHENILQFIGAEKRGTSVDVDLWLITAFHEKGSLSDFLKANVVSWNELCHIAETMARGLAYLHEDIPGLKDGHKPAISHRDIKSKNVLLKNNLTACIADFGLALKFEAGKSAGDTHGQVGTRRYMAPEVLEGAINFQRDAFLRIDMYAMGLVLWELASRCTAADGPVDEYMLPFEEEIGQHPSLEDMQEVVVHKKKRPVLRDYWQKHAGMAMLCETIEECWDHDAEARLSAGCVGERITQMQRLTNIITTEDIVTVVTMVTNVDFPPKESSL
# UniProt O95835, whole entry: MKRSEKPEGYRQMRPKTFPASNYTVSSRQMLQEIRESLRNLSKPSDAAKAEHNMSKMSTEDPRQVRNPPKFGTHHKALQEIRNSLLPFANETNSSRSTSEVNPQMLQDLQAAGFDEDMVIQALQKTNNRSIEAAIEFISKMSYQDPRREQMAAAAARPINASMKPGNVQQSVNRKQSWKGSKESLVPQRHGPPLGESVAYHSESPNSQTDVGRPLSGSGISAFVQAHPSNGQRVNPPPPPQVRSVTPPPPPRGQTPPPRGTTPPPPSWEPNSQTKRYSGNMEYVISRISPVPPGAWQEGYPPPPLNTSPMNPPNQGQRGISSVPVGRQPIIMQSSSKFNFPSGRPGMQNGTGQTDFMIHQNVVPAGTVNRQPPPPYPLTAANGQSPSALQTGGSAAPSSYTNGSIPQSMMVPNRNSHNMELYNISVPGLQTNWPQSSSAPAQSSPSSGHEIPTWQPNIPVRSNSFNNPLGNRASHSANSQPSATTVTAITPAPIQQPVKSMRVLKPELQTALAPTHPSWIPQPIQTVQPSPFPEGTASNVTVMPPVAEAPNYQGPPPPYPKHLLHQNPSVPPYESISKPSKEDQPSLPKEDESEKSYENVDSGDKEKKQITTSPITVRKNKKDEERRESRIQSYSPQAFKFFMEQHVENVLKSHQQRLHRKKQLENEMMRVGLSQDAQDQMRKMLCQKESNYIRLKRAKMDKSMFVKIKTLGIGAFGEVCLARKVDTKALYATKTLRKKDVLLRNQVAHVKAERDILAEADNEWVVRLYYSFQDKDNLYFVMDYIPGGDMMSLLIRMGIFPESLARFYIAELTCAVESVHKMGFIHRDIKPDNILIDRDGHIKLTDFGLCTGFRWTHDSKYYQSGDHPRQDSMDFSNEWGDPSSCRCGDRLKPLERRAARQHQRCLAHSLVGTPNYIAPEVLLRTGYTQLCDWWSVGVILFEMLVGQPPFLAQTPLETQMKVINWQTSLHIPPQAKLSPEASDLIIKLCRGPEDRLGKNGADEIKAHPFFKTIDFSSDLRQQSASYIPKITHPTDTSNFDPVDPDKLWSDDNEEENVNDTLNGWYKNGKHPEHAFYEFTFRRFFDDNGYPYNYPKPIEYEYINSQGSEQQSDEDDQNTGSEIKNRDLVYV
# UniProt Q9NQU5, whole entry: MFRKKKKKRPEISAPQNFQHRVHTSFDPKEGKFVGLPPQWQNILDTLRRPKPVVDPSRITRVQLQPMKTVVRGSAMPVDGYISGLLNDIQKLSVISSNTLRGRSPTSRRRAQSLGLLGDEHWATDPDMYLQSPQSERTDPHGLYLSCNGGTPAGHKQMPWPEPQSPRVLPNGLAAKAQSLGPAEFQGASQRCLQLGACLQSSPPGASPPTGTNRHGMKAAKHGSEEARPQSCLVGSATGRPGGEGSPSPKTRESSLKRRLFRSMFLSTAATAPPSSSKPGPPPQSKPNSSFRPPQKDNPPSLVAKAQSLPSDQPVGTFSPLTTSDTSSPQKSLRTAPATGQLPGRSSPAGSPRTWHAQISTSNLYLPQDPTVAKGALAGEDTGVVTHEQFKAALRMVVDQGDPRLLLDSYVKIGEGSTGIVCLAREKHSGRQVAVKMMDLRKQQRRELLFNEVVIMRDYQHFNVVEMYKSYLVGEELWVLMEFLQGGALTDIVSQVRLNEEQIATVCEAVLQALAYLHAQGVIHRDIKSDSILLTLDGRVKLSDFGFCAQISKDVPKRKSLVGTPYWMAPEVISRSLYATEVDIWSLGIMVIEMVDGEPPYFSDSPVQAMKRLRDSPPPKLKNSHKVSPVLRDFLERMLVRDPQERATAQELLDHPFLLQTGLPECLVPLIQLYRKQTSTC
# UniProt Q86TW2, 2-530 limits assumed: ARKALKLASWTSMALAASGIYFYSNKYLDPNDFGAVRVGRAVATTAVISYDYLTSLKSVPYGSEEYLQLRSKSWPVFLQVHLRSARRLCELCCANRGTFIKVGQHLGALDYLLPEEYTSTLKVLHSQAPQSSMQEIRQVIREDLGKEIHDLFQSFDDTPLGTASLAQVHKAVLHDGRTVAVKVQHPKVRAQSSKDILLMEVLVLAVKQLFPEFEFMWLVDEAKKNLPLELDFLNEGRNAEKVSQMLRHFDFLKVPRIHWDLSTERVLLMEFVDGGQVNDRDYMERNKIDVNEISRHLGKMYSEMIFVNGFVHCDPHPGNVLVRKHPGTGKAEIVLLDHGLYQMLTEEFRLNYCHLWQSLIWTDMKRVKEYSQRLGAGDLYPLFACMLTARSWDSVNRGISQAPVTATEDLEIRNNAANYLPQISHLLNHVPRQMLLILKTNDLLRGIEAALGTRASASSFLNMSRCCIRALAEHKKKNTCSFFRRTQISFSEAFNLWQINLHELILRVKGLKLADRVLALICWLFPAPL
# UniProt Q9BUP3, whole entry: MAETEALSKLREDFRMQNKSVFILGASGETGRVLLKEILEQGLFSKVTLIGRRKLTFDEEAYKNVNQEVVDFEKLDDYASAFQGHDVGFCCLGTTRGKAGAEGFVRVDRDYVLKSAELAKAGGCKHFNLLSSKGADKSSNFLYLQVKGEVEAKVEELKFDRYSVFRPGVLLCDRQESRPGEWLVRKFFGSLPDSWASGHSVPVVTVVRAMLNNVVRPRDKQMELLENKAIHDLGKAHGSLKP
# UniProt Q15349, whole entry: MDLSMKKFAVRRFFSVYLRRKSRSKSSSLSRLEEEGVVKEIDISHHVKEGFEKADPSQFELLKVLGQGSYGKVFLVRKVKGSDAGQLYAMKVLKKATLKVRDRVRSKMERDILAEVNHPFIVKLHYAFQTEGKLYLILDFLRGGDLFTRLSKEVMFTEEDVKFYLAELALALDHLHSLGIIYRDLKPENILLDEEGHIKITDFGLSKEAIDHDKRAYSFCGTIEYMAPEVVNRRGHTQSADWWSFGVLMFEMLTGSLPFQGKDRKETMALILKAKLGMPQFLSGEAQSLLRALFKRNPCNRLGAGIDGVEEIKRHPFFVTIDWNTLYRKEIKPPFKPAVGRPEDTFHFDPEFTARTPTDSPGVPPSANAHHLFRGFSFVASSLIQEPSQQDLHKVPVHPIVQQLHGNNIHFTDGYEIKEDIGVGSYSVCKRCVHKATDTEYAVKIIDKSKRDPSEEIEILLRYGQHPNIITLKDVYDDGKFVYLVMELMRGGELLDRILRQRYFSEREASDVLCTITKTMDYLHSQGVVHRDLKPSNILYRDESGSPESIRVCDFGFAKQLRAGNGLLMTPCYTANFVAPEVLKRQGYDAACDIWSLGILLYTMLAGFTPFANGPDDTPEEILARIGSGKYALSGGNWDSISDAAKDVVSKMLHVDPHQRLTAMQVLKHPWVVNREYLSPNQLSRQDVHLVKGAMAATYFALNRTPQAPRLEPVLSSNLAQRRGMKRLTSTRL
# UniProt P42680, whole entry: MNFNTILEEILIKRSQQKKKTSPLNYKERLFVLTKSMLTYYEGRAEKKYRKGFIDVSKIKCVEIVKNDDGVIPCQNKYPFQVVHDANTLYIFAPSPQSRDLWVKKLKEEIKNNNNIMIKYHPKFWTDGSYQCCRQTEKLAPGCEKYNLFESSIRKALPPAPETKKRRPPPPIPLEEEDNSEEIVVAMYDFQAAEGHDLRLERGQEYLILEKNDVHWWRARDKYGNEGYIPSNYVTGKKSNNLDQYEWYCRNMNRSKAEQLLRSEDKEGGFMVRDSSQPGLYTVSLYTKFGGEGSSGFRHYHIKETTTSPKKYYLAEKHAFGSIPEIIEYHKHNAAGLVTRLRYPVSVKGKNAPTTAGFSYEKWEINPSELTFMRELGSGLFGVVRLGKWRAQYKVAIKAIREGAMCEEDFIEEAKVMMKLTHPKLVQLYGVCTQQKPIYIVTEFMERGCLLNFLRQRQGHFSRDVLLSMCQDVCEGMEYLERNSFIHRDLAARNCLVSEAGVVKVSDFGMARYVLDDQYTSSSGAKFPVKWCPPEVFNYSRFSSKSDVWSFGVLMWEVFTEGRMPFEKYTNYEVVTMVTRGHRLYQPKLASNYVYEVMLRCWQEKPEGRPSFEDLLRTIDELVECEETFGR
# UniProt Q9BZL6, whole entry: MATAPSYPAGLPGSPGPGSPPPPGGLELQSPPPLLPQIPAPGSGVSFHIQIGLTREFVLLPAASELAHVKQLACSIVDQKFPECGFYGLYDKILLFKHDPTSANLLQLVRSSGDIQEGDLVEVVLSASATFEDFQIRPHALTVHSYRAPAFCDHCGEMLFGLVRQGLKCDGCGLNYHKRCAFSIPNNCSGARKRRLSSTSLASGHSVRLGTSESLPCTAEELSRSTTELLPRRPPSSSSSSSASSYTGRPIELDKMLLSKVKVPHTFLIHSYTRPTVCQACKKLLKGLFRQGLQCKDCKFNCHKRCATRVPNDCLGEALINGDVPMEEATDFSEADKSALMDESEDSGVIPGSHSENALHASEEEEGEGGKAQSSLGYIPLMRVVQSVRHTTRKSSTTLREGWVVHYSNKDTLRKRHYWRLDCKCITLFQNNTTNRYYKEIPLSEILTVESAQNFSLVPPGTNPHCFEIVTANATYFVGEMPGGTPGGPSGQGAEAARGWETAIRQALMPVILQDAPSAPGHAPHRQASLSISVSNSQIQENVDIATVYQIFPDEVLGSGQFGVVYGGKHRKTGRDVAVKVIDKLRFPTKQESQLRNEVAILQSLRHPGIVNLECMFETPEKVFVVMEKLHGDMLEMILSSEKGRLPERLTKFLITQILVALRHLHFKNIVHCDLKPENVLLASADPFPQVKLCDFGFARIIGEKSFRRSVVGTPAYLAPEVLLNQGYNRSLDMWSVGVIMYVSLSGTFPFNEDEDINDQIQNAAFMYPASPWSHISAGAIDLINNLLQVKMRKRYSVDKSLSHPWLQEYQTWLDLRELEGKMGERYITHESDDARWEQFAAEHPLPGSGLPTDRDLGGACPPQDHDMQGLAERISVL
# What was measured:
# Test in all cases: KAT chemical proteomics
# CSNK1D = CSNK1D (Homo sapiens, UniProt P48730)
# PKN3 = PKN3 (Homo sapiens, UniProt Q6P5Z2)
# MKNK1 = MKNK1 (Homo sapiens, UniProt Q9BUB5)
# SMG1 = SMG1 (Homo sapiens, UniProt Q96Q15)
# MAP4K2 = MAP4K2 (Homo sapiens, UniProt Q12851)
# MAPK10 = MAPK10 (Homo sapiens, UniProt P53779)
# ITPK1 = ITPK1 (Homo sapiens, UniProt Q13572)
# PDPK1 = PDPK1 (Homo sapiens, UniProt O15530)
# PPP4C = tested on: PPP4C
# NEK7 = NEK7 (Homo sapiens, UniProt Q8TDX7)
# TBK1 = TBK1 (Homo sapiens, UniProt Q9UHD2)
# ACVR2A = ACVR2A (Homo sapiens, UniProt P27037)
# PHKG2 = PHKG2 (Homo sapiens, UniProt P15735)
# PGK1 = PGK1 (Homo sapiens, UniProt P00558)
# LATS1 = LATS1 (Homo sapiens, UniProt O95835)
# PAK6 = PAK6 (Homo sapiens, UniProt Q9NQU5)
# MARK2 = MARK2 (Homo sapiens, UniProt Q7KZI7)
# PKN1 = PKN1 (Homo sapiens, UniProt Q16512)
# ADCK1 = ADCK1 (Homo sapiens, UniProt Q86TW2)
# CPNE3 = CPNE3 (Homo sapiens, UniProt O75131)
# EPHB6 = EPHB6 (Homo sapiens, UniProt O15197)
# FRK = FRK (Homo sapiens, UniProt P42685)
# MAP3K11 = MAP3K11 (Homo sapiens, UniProt Q16584)
# HTATIP2 = HTATIP2 (Homo sapiens, UniProt Q9BUP3)
# CDC7 = CDC7 (Homo sapiens, UniProt O00311)
# RPS6KA2 = RPS6KA2 (Homo sapiens, UniProt Q15349)
# PKM = PKM (Homo sapiens, UniProt P14618)
# CASK = CASK (Homo sapiens, UniProt O14936)
# AKT3 = AKT3 (Homo sapiens, UniProt Q9Y243)
# MAPK8 = MAPK8 (Homo sapiens, UniProt P45983)
# RIPK3 = RIPK3 (Homo sapiens, UniProt Q9Y572)
# MAPK3 = MAPK3 (Homo sapiens, UniProt P27361)
# TEC = TEC (Homo sapiens, UniProt P42680)
# PRKAB1 = tested on: PRKAB1
# AXL = AXL (Homo sapiens, UniProt P30530)
# DDR2 = DDR2 (Homo sapiens, UniProt Q16832)
# PDIK1L = PDIK1L (Homo sapiens, UniProt Q8N165)
# YES1 = YES1 (Homo sapiens, UniProt P07947)
# PRKD2 = PRKD2 (Homo sapiens, UniProt Q9BZL6)
# CCNK = tested on: CCNK
# DYRK1A = DYRK1A (Homo sapiens, UniProt Q13627)
structure (smiles),measurement,setting,value
"Cc1nc(C(F)(F)F)c2c(C(N)=O)c(N)n(-c3c(C)ccc(O)c3C)c2n1 (single isomer, unassigned)",RB50,CSNK1D,>50 µM
same,RB50,PKN3,163 nM
same,RB50,MKNK1,>50 µM
same,RB50,SMG1,>50 µM
same,RB50,MAP4K2,>50 µM
same,RB50,MAPK10,>50 µM
same,RB50,ITPK1,>50 µM
same,RB50,PDPK1,>50 µM
same,RB50,PPP4C,>50 µM
same,RB50,NEK7,>50 µM
same,RB50,TBK1,>50 µM
same,RB50,ACVR2A,62.7 nM
same,RB50,PHKG2,>50 µM
same,RB50,PGK1,>50 µM
same,RB50,LATS1,>50 µM
same,RB50,PAK6,>50 µM
same,RB50,MARK2,>50 µM
same,RB50,PKN1,>50 µM
same,RB50,ADCK1,>50 µM
same,RB50,CPNE3,>50 µM
same,RB50,EPHB6,>50 µM
same,RB50,FRK,245 nM
same,RB50,MAP3K11,>50 µM
same,RB50,HTATIP2,>50 µM
same,RB50,CDC7,>50 µM
same,RB50,RPS6KA2,>50 µM
same,RB50,PKM,>50 µM
same,RB50,CASK,>50 µM
same,RB50,AKT3,>50 µM
same,RB50,MAPK8,>50 µM
same,RB50,RIPK3,>50 µM
same,RB50,MAPK3,>50 µM
same,RB50,TEC,>50 µM
same,RB50,PRKAB1,>50 µM
same,RB50,AXL,>50 µM
same,RB50,DDR2,>50 µM
same,RB50,PDIK1L,>50 µM
same,RB50,YES1,>50 µM
same,RB50,PRKD2,>50 µM
same,RB50,CCNK,4.47 µM
same,RB50,DYRK1A,433 nM
